Data as given in PubChem BioAssay AID1224817 (Yan Lab, Georgia Cancer Center, Augusta University, 2016).
This is a selection; strong and weak results do not stand in their true shares. Activity calls are given as the source filed them.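 How the source made its calls: active means log2 luciferase ratio at or below -0.5849, meaning signal at two thirds of solvent-only control or lower; inactive means the rest.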

Assay: eIF4E expression suppression, luciferase knock-in reporter – cell-based, HT1080, primary screen (AID 1224817);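 further: luciferase reports endogenous eIF4E expression since it is co-expressed from the native EIF4E locus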
Conditions: HT1080 EIF4E-luc2 knock-in reporter, 16 h, at 2.5 µM, active compounds read low

SMILES | log2 luciferase activity ratio
NNC(NN)NN.n1nc(-c2nn[nH]n2)n[nH]1 | inactive: -0.344
N1=C(c2nnc(-c3nn[nH]n3)nn2)NNN1 | inactive: -0.0416
